From US10189803B2, “Synthesis of therapeutic and diagnostic drugs centered on regioselective and stereoselective ring opening of aziridinium ions” (ILLINOIS INSTITUTE OF TECHNOLOGY, priority 2008, dated 2019)

Assay: Radiolabeling kinetics of trastuzumab-ligand conjugates with 205/6Bi (SE-HPLC after DTPA challenge)
Format: physicochemical
Settings: at 24 h (as printed in text)

C-DOTA-trastuzumab: C-DOTA-NCS (Macrocyclics, TX) conjugated to Herceptin, for comparison
radiolabeling with 205/6Bi, not complete: 60.2±8.0%
